# Assay results reported in patent publication US10858365B2, “Triazolo-pyrimidine compounds and uses thereof” (Dizal (Jiangsu) Pharmaceutical Co., Ltd., priority 2018, dated 2020).
# Amino acid sequences for entries named in this document (tags omitted).
# UniProt Q60613, whole entry: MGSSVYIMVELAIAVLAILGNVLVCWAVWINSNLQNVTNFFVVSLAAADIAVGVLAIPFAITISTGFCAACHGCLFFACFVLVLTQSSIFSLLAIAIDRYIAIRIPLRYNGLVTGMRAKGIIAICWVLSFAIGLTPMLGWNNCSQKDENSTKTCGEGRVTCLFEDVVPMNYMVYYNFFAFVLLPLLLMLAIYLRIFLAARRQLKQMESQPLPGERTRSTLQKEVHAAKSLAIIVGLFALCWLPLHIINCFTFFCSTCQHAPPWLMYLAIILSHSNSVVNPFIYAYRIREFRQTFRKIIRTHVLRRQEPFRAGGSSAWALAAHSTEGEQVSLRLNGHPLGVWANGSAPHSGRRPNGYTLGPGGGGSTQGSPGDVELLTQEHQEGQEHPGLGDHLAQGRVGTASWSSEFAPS
# Biological target: mA2a (Mus musculus (Mouse), UniProt Q60613)
# Assay: cAMP inhibition assay in mA2a/CHO cells
# Assay type: cell-based
# Conditions: adenosine stimulation, read-out: cAMP & FLIPR IC50 (nM) mA2a
# Description: hA2a/CHO, hA2b/CHO and mA2a/CHO (Genscript) were plated at 5×10^3 cells/well into 384-well polystyrene plates at the day of experiment. Compounds were pre-incubated with cells for 30 min at 37° C., 5% CO2. Then […] adenosine was added to the cells and incubated for 30 min at 37° C., 5% CO2. Detection reagent (CISBIO) was added and the plates were incubated for 60 min at room temperature. The signal was captured by Envision.
# FLIPR™ and cAMP inhibition activities of exemplary compounds in different adenosine receptor over-expressing cell lines are shown in Table 4 below.
smiles,measurement,value
"Cn1cc(-c2c(-c3ncco3)nc(N)n3nc(Cc4ncccc4OC(F)F)nc23)ccc1=O [Example 71, 5-(5-amino-2-[[3-(difluoromethoxy)pyridin-2-yl]methyl]-7-(1,3-oxazol-2-yl)-[1,2,4]triazolo[1,5-c]pyrimidin-8-yl)-1-methyl-1,2-dihydropyridin-2-one]",IC50,6.4 nM
